Only a part is listed here, and it is no random draw. Active and inactive are the calls of the source.

The nature of the assay: UUG initiation codon usage in yeast – whole organism, S. cerevisiae, single point, plate reader, primary screen (AID 602363).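 Also: firefly luciferase made from a UUG start codon reports start codon fidelity.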 The following applies: S. cerevisiae UUG-firefly luciferase reporter, luminescence/redox ratio; at 18.7 µM; active compounds read high.
In the case of `O=C1CCN(Cc2ccccc2)CC1`, the activity score is inactive: 8.74%.
For `CC(C)(C)n1nnnc1C(c1ccccc1)N1CCC(n2c(=O)[nH]c3ccccc32)CC1` (stereo unspecified) the value was inactive: 6.59%.
Turning to `COc1ccc(NC2CCN(CCc3ccccc3)CC2)c(OC)c1`, the activity score is inactive: -12.4%.
For `CCOC(=O)N1CCC(Nc2ccc(F)cc2)CC1`, the activity score is inactive: -11.4%.
Turning to `O=C(NCC1(N2CCCCC2)CCCCC1)c1ccc(F)cc1`, the activity score was inactive: 1.01%.
In the case of `O=P1(N(CCCl)CCCl)SCCCS1`, the activity score is inactive: -8.16%.
Under `CCCCn1nnnc1C(c1cc2ccccc2o1)N1CCC(n2c(=O)[nH]c3ccccc32)CC1` (stereo unspecified) stands inactive: -8.99%; under `CCCCOc1ccc(C(=O)NCC2(N3CCOCC3)CCCCC2)cc1`, inactive: -9.25%.
Turning to `O=c1[nH]c2ccccc2n1C1CCN(C(c2ccccc2)c2nnnn2C2CCCCC2)CC1` (stereo unspecified), the activity score is inactive: 7.79%.
Consider `O=c1[nH]c2ccccc2n1C1CCN(C(c2cccc3ccccc23)c2nnnn2C2CCCC2)CC1` (stereo unspecified), for which the activity score was inactive: -18.7%.
For `COc1cc(C(=O)NCC2(N(C)C)CCCCC2)ccc1OC(F)F`, the activity score was inactive: -6.96%.
For `CCOC(=O)N1CCC(Nc2cccc(C)c2)CC1` the value was inactive: -9.16%; for `CCCCn1nnnc1C(c1cccs1)N1CCC(n2c(=O)[nH]c3ccccc32)CC1` (stereo unspecified), inactive: -12.9%; for `O=C(NCC1(N2CCCCC2)CCCCC1)c1cccs1`, inactive: 6.81%.
Turning to `CCCCn1nnnc1C(CC)N1CCC(n2c(=O)[nH]c3ccccc32)CC1` (stereo unspecified), the activity score is inactive: -7.95%.
`O=C(NCC1(N2CCCCC2)CCCCC1)c1ccc(=O)[nH]c1`: the activity score was inactive: -8.38%.
Turning to `CCC(c1nnnn1C1CCCC1)N1CCC(n2c(=O)[nH]c3ccccc32)CC1` (stereo unspecified), the activity score was inactive: 7.5%.
Under `CC(C)(C)OC(=O)N1CCC(N(C(=O)c2ccccc2)c2ccc(F)cc2)CC1` stands inactive: 5.88%.
On to `COc1ccc(C(=O)NCC2(N3CCCCC3)CCCCC2)cc1`, for which the activity score is inactive: -17.8%.
Regarding `Cc1cccc(NC2(C#N)CCN(Cc3ccccc3)CC2)c1`, the activity score was inactive: -8.47%.
As to `CSc1ccccc1C(=O)NCC1(N2CCCCC2)CCCCC1`, the activity score is inactive: -22.6%.
Consider `Cc1cc(C)cc(N(C(=O)c2ccccc2)C2CCN(C(=O)OC(C)(C)C)CC2)c1`, for which the activity score was inactive: 5.12%.
For the compound `O=c1[nH]c2ccccc2n1C1CCN(C(c2ccccc2OC(F)(F)F)c2nnnn2C2CCCCC2)CC1` (stereo unspecified), the activity score was inactive: -7.11%.
Turning to `O=C(NCC1(N2CCCCC2)CCCCC1)c1ccc(Cl)nc1`, the activity score is inactive: -17.9%.
In the case of `CCCCn1nnnc1C(c1ccc(OC)cc1)N1CCC(n2c(=O)[nH]c3ccccc32)CC1` (stereo unspecified), the activity score was inactive: 1.13%.
Turning to `CCOC(=O)N1CCC(Nc2ccc(OC)cc2)CC1`, the activity score was inactive: 4.09%.
Take `O=C(OC1CN2CCC1CC2)C1c2ccccc2Oc2ccccc21` (stereo unspecified): the activity score was inactive: -16.1%.
As for `O=c1[nH]c2ccccc2n1C1CCN(C(c2cc3ccccc3o2)c2nnnn2C2CCCCC2)CC1` (stereo unspecified), the activity score is inactive: -13.3%.
Under `O=C(NCC1(N2CCCCC2)CCCCC1)c1ccc(Cl)s1` stands inactive: 5.59%; under `CN(C)c1cccc(C(=O)NCC2(N3CCCCC3)CCCCC2)c1`, inactive: -14.8%; under `CCCCn1nnnc1C(c1ccccc1OC(F)(F)F)N1CCC(n2c(=O)[nH]c3ccccc32)CC1` (stereo unspecified), inactive: -9.99%.
In the case of `CCCCn1nnnc1C(c1ccnc2ccccc12)N1CCC(n2c(=O)[nH]c3ccccc32)CC1` (stereo unspecified), the activity score was inactive: 20.5%.
Under `O=C(NCC1(N2CCOCC2)CCCCC1)c1cc(F)c(F)cc1Cl` stands inactive: 9.54%.
Regarding `CCC(c1nnnn1C(C)(C)C)N1CCC(n2c(=O)[nH]c3ccccc32)CC1` (stereo unspecified), the activity score was inactive: -0.153%.
As to `COc1cc(OC)c(C(=O)NCC2(N(C)C)CCCCC2)cc1OC`, the activity score was inactive: -18%.
For the compound `O=C(NCC1(N2CCCCC2)CCCCC1)c1cncc(Br)c1`, the activity score was inactive: -10.7%.
Regarding `CN1CCC(Nc2cccc(F)c2)CC1`, the activity score is inactive: -11.1%.
For `CCCOc1ccc(C(=O)NCC2(N(C)C)CCCCC2)cc1OC`, the activity score is inactive: -13.5%.
Take `Cc1ccc(C(=O)NCC2(N(C)C)CCCCC2)o1`: the activity score is inactive: 12.8%.
For `COc1ccc(C(c2nnnn2C2CCCC2)N2CCC(n3c(=O)[nH]c4ccccc43)CC2)cc1` (stereo unspecified) the value was inactive: 24.7%.
For `O=C(NCC1(N2CCCCC2)CCCCC1)c1ccc(OC(F)F)cc1` the value was inactive: -12.2%; for `CC(C)(C)n1nnnc1C(c1ccccc1OC(F)(F)F)N1CCC(n2c(=O)[nH]c3ccccc32)CC1` (stereo unspecified), inactive: -11.1%; for `CSc1ccc(C(=O)NCC2(N3CCOCC3)CCCCC2)cc1`, inactive: -25.3%.
For the compound `N#CC1(Nc2ccccc2)CCN(CCc2ccccc2)CC1`, the activity score was inactive: -4.03%.
For `O=c1[nH]c2ccccc2n1C1CCN(C(c2ccccc2OC(F)(F)F)c2nnnn2C2CCCC2)CC1` (stereo unspecified), the activity score is inactive: -1.25%.
In the case of `CCN1CCC(Nc2ccc(Cl)cc2)CC1`, the activity score is inactive: 6.96%.
For `O=C(NCC1(N2CCCCC2)CCCCC1)c1cccc(C(F)(F)F)c1`, the activity score is inactive: -1.65%.
Turning to `CCCCn1nnnc1C(c1cccc2ccccc12)N1CCC(n2c(=O)[nH]c3ccccc32)CC1` (stereo unspecified), the activity score was inactive: -12.3%.
As to `CN1CCN(CCOC(=O)C(O)(c2ccccc2)c2ccccc2)CC1`, the activity score was inactive: -4.27%.
As for `COc1cc(C(=O)NCC2(N3CCCCC3)CCCCC2)ccc1OC(F)F`, the activity score is inactive: -27.5%.
Under `O=C(NCC1(N2CCOCC2)CCCCC1)c1cc(=O)[nH]c2ccccc12` stands inactive: 13.2%; under `CC(C)(C)OC(=O)N1CCC(N(C(=O)c2ccccc2)c2ccc(Cl)cc2)CC1`, inactive: -17.8%; under `N#Cc1ccc(C(=O)NCC2(N3CCCCC3)CCCCC2)cc1`, inactive: -12.6%.
Under `CCCN1CCC(Nc2cc(OC)cc(OC)c2)CC1` stands inactive: -1.89%; under `O=c1[nH]c2ccccc2n1C1CCN(C(c2ccccc2)c2nnnn2C2CCCC2)CC1` (stereo unspecified), inactive: -12.6%.
Under `c1ccc(CN2CCC(Nc3ccccc3)CC2)cc1` stands inactive: -22.7%; under `CN(C)C1(CNC(=O)c2cccc(C#N)c2)CCCCC1`, inactive: -20.5%; under `CC(C)(C)n1nnnc1C(c1cccc2ccccc12)N1CCC(n2c(=O)[nH]c3ccccc32)CC1` (stereo unspecified), inactive: -6.01%.
For the compound `O=C(NCC1(N2CCOCC2)CCCCC1)c1cc(Br)ccc1Cl`, the activity score was inactive: -13.7%.
As to `COc1cc(C(=O)NCC2(N3CCOCC3)CCCCC2)cc(OC)c1C`, the activity score was inactive: 13%.
Consider `CCCCn1nnnc1C(c1ccccc1)N1CCC(n2c(=O)[nH]c3ccccc32)CC1` (stereo unspecified), for which the activity score was inactive: 24.2%.
For `O=c1[nH]c2ccccc2n1C1CCN(C(c2ccnc3ccccc23)c2nnnn2C2CCCC2)CC1` (stereo unspecified) the value was inactive: -15.2%; for `O=c1[nH]c2ccccc2n1C1CCN(C(c2cccs2)c2nnnn2C2CCCCC2)CC1` (stereo unspecified), inactive: -17.8%; for `N/C(=N\O)c1c(N)no[n+]1[O-]`, inactive: -14.1%.
Regarding `COc1cccc(C(c2nnnn2C(C)(C)C)N2CCC(n3c(=O)[nH]c4ccccc43)CC2)c1OC` (stereo unspecified), the activity score is inactive: -3%.
In the case of `CCOC(=O)N1CCC(Nc2ccc(C)cc2)CC1`, the activity score was inactive: -13%.
For `CCCCn1nnnc1C(c1cccc(OC)c1OC)N1CCC(n2c(=O)[nH]c3ccccc32)CC1` (stereo unspecified) the value was inactive: 25.2%; for `O=c1[nH]c2ccccc2n1C1CCN(C(c2cccs2)c2nnnn2C2CCCC2)CC1` (stereo unspecified), inactive: -7.85%.
As to `CN1CCC(Nc2ccc(F)c(Cl)c2)CC1`, the activity score is inactive: 2.76%.
For `CCOc1ncccc1C(=O)NCC1(N2CCOCC2)CCCCC1` the value was inactive: -8.39%; for `CCCOc1ccc(C(=O)NCC2(N(C)C)CCCCC2)cc1`, inactive: -19.1%.
Turning to `O=c1[nH]c2ccccc2n1C1CCN(C(c2cc3ccccc3o2)c2nnnn2C2CCCC2)CC1` (stereo unspecified), the activity score was inactive: -8.8%.
In the case of `O=C(O)C1(Nc2ccccc2)CCN(Cc2ccccc2)CC1`, the activity score was inactive: -13.2%.
As to `CCC(CO)(C(=O)OC1CN2CCC1CC2)c1ccccc1` (stereo unspecified), the activity score is inactive: 2.49%.
As for `COc1cccc(C(c2nnnn2C2CCCC2)N2CCC(n3c(=O)[nH]c4ccccc43)CC2)c1OC` (stereo unspecified), the activity score was inactive: -0.859%.
For `COc1cc(OC)cc(C(=O)NCC2(N3CCOCC3)CCCCC2)c1`, the activity score was inactive: 5.92%.
Regarding `COc1cccc(C(=O)N(c2cc(C)cc(C)c2)C2CCN(C(=O)OC(C)(C)C)CC2)c1`, the activity score was inactive: 7.11%.
For `CN1CCC(Nc2ccc(Cl)cc2)CC1`, the activity score is inactive: -19.5%.
For the compound `O=c1[nH]c2ccccc2n1C1CCN(C(c2ccnc3ccccc23)c2nnnn2C2CCCCC2)CC1` (stereo unspecified), the activity score is inactive: -13.9%.
As to `COc1cc(OC)cc(C(=O)NCC2(N3CCCCC3)CCCCC2)c1`, the activity score is inactive: -9.69%.
On to `CCC(c1nnnn1C1CCCCC1)N1CCC(n2c(=O)[nH]c3ccccc32)CC1` (stereo unspecified), for which the activity score is inactive: 2%.
Take `CC(=O)N(c1ccccc1)C1CCNCC1`: the activity score was inactive: -28.1%.
Under `COc1cccc(C(c2nnnn2C2CCCCC2)N2CCC(n3c(=O)[nH]c4ccccc43)CC2)c1OC` (stereo unspecified) stands inactive: -10.6%; under `Cc1ccc(NC2(C#N)CCN(Cc3ccccc3)CC2)cc1`, inactive: -9.61%.
Under `Fc1ccccc1NC1CCN(Cc2ccccc2)CC1` stands inactive: 0.627%; under `Cc1ccc(C(=O)NCC2(N3CCCCC3)CCCCC2)o1`, inactive: 0.514%; under `CC(C)(C)n1nnnc1C(c1ccnc2ccccc12)N1CCC(n2c(=O)[nH]c3ccccc32)CC1` (stereo unspecified), inactive: 7.29%.
In the case of `COc1ccc(C(c2nnnn2C2CCCCC2)N2CCC(n3c(=O)[nH]c4ccccc43)CC2)cc1` (stereo unspecified), the activity score is inactive: 25.6%.
For `Cc1ccccc1NC1(C#N)CCN(Cc2ccccc2)CC1` the value was inactive: -8.16%; for `Cn1c(=O)[nH]cc(N(CCCl)CCCl)c1=O`, inactive: -13%; for `O=C(NCC1(N2CCCCC2)CCCCC1)c1ccco1`, inactive: -10.5%.
